The values below come from US20100189688A1, “Dose forms comprising VX-950 and their dosage regimen” (priority 2007, published 2010).

The experiment has as its system genotype 1 hepatitis C. The experiment can be described thus: Phase 1b 14-day study of VX-950, VX-950/Peg-IFN-2a or Peg-IFN-2a followed by Peg-IFN-2a/RBV: HCV RNA and SVR (Example 9). The conditions noted are these: group sizes N 7 / 8 / 4.

Regarding Peg-IFN-2a: Peginterferon alfa-2a, the “Undetectable HCV RNA at 24-week off study peg-IFN-2a/RBV treatment” value is given as 3 N.
